How the values were obtained:
[1] = test system: phosphatase coupled goat anti rabbit antibody; experiment: Dot blot on nitrocellulose membrane; assay type: biochemical; settings: 0.4 mM in assay buffer pH 9.5, after a few minutes of incubation
E. coli = experiment: Nutrient agar with oil in water emulsion; assay type: cell-based; settings: 0.4 mM, 16 hours

| SMILES | Fluorescence of spot containing beta-galactosidase under UV 366 nm light [1] | Fluorescence of E. coli colonies under UV 366 nm (E. coli; nutrient agar with paraffin oil, Tween 80 and 1,2-dipalmitoyl-rac-glycero-3-phosphocholine) | Fluorescence of E. coli colonies under UV 366 nm (E. coli; nutrient agar without further additions) |
| --- | --- | --- | --- |
| COc1ccc(C(=O)c2ccccc2-n2cc(OP(=O)(O)O)c3ccccc32)c(OC)c1 [Aldol™ 470 phosphate] | yellow fluorescence | – | – |
| Cn1cccc1C(=O)c1ccccc1-n1cc(O[C@@H]2O[C@H](CO)[C@H](O)[C@H](O)[C@H]2O)c2ccc(Cl)cc21 [Aldol™ 495 beta-D-galactoside] | – | green fluorescent | did not show any fluorescence |
